# Results: PubChem BioAssay AID624038 (The Scripps Research Institute Molecular Screening Center, 2012)
# The chains behind the UniProt entries cited, without tags or fusion partners.
# UniProt P08912, whole entry: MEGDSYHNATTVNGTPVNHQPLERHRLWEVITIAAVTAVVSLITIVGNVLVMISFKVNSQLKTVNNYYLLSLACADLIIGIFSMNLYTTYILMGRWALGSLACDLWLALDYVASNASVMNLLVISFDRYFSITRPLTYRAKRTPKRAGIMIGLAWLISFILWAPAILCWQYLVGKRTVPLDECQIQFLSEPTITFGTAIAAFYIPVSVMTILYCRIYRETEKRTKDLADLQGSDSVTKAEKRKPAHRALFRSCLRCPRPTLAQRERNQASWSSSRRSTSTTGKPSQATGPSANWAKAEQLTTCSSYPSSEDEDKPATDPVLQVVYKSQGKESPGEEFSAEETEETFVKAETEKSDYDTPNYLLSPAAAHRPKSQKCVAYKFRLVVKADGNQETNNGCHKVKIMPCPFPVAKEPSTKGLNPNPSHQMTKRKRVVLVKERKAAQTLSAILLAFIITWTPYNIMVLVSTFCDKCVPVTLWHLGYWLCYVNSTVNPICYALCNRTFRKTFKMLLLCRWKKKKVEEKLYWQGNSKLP
# The entries are a selection whose mix differs from that of the whole data set. Some salts and complexes are drawn in separate pieces, as the source files them; their charges need not balance. Active and inactive are the calls of the source.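 How the source made its calls: active means activation above the run cutoff, the mean activation of all test compounds plus 3 SD (cut at about 18% in these data); inactive means the rest.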
# Target: Muscarinic acetylcholine receptor M5 (Homo sapiens) (UniProt P08912)
# Experiment: human M5 muscarinic receptor positive allosteric modulators, primary screen, CHO-K1 cells, Fluo-8 calcium fluorescence (AID 624038)
# Settings: CHO-K1 hM5, Fluo-8 calcium, ACh EC20 PAM; at 3 µM; stronger effect = higher value; 0% = ACh EC20, 100% = ACh EC100
row,SMILES,activation
1,CP(=O)(Nc1ccccn1)Oc1ccc(Cl)cc1 (stereo not drawn),inactive: 0.03%
2,O=[N+]([O-])c1cc([N+](=O)[O-])c(O)c([N+](=O)[O-])c1.c1ccc(Oc2ccncc2)cc1,inactive: 4.7%
3,CCOC(=O)c1ccc(NP(C)(=O)Oc2ccc(OC)cc2)cc1 (stereo not drawn),inactive: -0.37%
4,CCOP(C)(=S)SCC(=O)NC(C)C(=O)O (stereo not drawn),inactive: 1.74%
5,Cc1cc(C)cc(OP(C)(=O)Nc2ccc(SC(F)(F)F)cc2)c1 (stereo not drawn),inactive: 4.18%
6,CP(=O)(NC(=O)Nc1ccccc1)Oc1ccccc1 (stereo not drawn),inactive: -5.17%
7,CCc1ccc(OP(C)(=O)N2CCN(c3ccc([N+](=O)[O-])cc3)CC2)cc1 (stereo not drawn),inactive: -19.8%
8,CP(=O)(Oc1ccccc1)OC(c1ccccc1)C(F)(F)F (stereo not drawn),inactive: -1.85%
9,CP(=O)(Nc1ccc(SC(F)(F)F)cc1)Oc1ccc(Cl)cc1 (stereo not drawn),inactive: -5.92%
10,Cc1ccc(Nc2c([N+](=O)[O-])cc([N+](=O)[O-])cc2[N+](=O)[O-])cc1,inactive: -6.18%
11,Cc1cccc(C)c1OP(C)(=O)Nc1ccc(SC(F)(F)F)cc1 (stereo not drawn),inactive: -1.27%
12,CP(=O)(Nc1ccccc1Br)Oc1ccccc1 (stereo not drawn),inactive: 8.84%
13,COc1ccccc1OP(C)(=O)Nc1ccccc1 (stereo not drawn),inactive: 1.34%
14,CP(=S)(Nn1cnnc1)Oc1ccccc1 (stereo not drawn),inactive: -1.14%
15,CCCCOc1ccc(C(=O)NCC2(N3CCCCC3)CCCCC2)cc1OC,inactive: -2.52%
16,Cc1cc(C)cc(OP(C)(N)=O)c1 (stereo not drawn),inactive: 14.1%
17,COc1ccc(OP(C)(=O)Nc2cccc(F)c2)cc1 (stereo not drawn),inactive: -4.95%
18,COc1ccccc1OP(C)(=O)Nc1cc(Cl)ccc1C (stereo not drawn),inactive: 4.11%
19,Cc1ccc(NP(C)(=O)Oc2ccccc2)c(C)c1 (stereo not drawn),inactive: 4.93%
20,COc1ccccc1OP(C)(=O)Nc1ccc(C)cc1 (stereo not drawn),inactive: 2.78%
21,CCOC(=O)c1ccc(NP(C)(=O)Oc2ccccc2)cc1 (stereo not drawn),inactive: 1.63%

row,SMILES,activation
1,O=[N+]([O-])c1ccc2c(c1)C=Nc1ccccc1O2,inactive: -0.38%
2,Cc1cccc(C)c1OP(C)(N)=O (stereo not drawn),inactive: -1.88%
3,CC(C)(C)c1ccc(OP(C)(=O)Nc2ccc(SC(F)(F)F)cc2)cc1 (stereo not drawn),inactive: -16.2%
4,COc1cc(C(=O)NCC2(N3CCOCC3)CCCCC2)ccc1OCC(C)C,inactive: -0.48%
5,O=[N+]([O-])c1cc([N+](=O)[O-])c(Nc2cccnc2)c([N+](=O)[O-])c1,inactive: -13.1%
6,COc1ccccc1-c1ccccn1.O=[N+]([O-])c1cc([N+](=O)[O-])c(O)c([N+](=O)[O-])c1,inactive: 10.4%
7,CCN(CC)CCCOC(=O)C(O)(c1ccccc1)c1ccccc1,inactive: -30.9%
8,Cc1ccc(C)c(NP(C)(=O)Oc2ccccc2)c1 (stereo not drawn),inactive: 8.27%
9,Cc1cc(C)cc(OP(C)(=O)Nc2ccccn2)c1 (stereo not drawn),inactive: 4.33%
10,CP(=O)(Nc1cccc(Br)c1)Oc1ccccc1 (stereo not drawn),inactive: 4.32%
11,CCOC(=O)c1ccc(NP(C)(=O)Oc2cc(C)cc(C)c2)cc1 (stereo not drawn),inactive: -1.35%
12,Cc1cc(C)cc(OP(C)(=O)Nc2ccc(C)cc2C)c1 (stereo not drawn),inactive: 3.12%
13,COc1ccccc1OP(C)(=O)Nc1cccc(Br)c1 (stereo not drawn),inactive: -0.79%
14,COc1cc(C(=O)NCC2(N3CCOCC3)CCCCC2)cc(Cl)c1OC(C)C,inactive: -8.43%
15,CC1=NCCc2c1[nH]c1ccccc21.O=[N+]([O-])c1cc([N+](=O)[O-])c(O)c([N+](=O)[O-])c1,inactive: 2.29%
16,O=C(O)c1cccc(Nc2c([N+](=O)[O-])cc([N+](=O)[O-])cc2[N+](=O)[O-])c1,inactive: 0.31%
17,COc1ccc(-c2ccccn2)cc1.O=[N+]([O-])c1cc([N+](=O)[O-])c(O)c([N+](=O)[O-])c1,inactive: 1.4%
18,CCCOc1ccc(NP(C)(=O)Oc2ccc(Cl)cc2)cc1 (stereo not drawn),inactive: 9.87%
19,CP(=O)(Nc1ccc(SC(F)(F)F)cc1)Oc1ccccc1 (stereo not drawn),inactive: -7.71%
20,CN1CCCCC1COC(=O)C1(O)c2ccccc2CCc2ccccc21 (stereo not drawn),inactive: -19%
21,COc1ccccc1OP(C)(=O)Nc1c(C)cccc1C (stereo not drawn),inactive: -0.42%

row,SMILES,activation
1,CCOC(=O)C(CC)C1=NC(C)(C)Cc2ccccc21.O=[N+]([O-])c1cc([N+](=O)[O-])c(O)c([N+](=O)[O-])c1 (stereo not drawn),inactive: -0.38%
2,CC1=C2N=C(C=C3N=C(C(C)=C4[N-][C@@](C)([C@@H]5N=C1[C@](C)(CCC(=O)NC[C@@H](C)OP(=O)([O-])O[C@H]1[C@@H](O)[C@@H](n6cnc7cc(C)c(C)cc76)O[C@@H]1CO)[C@H]5CC(N)=O)[C@@](C)(CC(N)=O)[C@@H]4CCC(N)=O)[C@@](C)(CC(N)=O)[C@@H]3CCC(N)=O)C(C)(C)[C@@H]2CCC(N)=O.[C-]#N.[Co+3],inactive: 0.8%
3,CN(C)C1(CNC(=O)c2ccc(S(C)(=O)=O)cc2)CCCCC1,inactive: 6.55%
4,O=[N+]([O-])c1cc([N+](=O)[O-])c(Nc2nnnn2CCO)c([N+](=O)[O-])c1,inactive: -5.35%
5,Cc1nc2ccc3ccccc3c2s1.O=[N+]([O-])c1cc([N+](=O)[O-])c(O)c([N+](=O)[O-])c1,inactive: 7.49%
6,O=[N+]([O-])c1cc([N+](=O)[O-])c(-c2cnn(-c3ccccc3)c2)c([N+](=O)[O-])c1,inactive: -11.6%
7,CN(Cc1cccnc1)C(=O)COc1ccc(Cl)c(Cl)c1.O=[N+]([O-])c1cc([N+](=O)[O-])c(O)c([N+](=O)[O-])c1,inactive: 1.52%
8,O=[N+]([O-])c1cc([N+](=O)[O-])c(-n2nnc3ccccc32)c([N+](=O)[O-])c1,inactive: 3.87%
9,Cc1ccccc1NP(C)(=O)Nc1ccccc1C,inactive: 3.5%
10,O=[N+]([O-])c1cc([N+](=O)[O-])c(C(F)(F)F)c([N+](=O)[O-])c1O,inactive: -2.16%
11,CP(=O)(Nc1ccc2c(c1)OCCO2)Oc1ccccc1 (stereo not drawn),inactive: -4.04%
12,CCOP(C)(=S)SCC(=O)NC(C)(CC)C(=O)O (stereo not drawn),inactive: 6.83%
13,CP(=O)(Nc1ccc(SC(F)(F)F)cc1)Oc1ccc(F)cc1 (stereo not drawn),inactive: -9.72%
14,Cc1c(C(c2ccc3c(c2)OCO3)c2c(C)n(C)n(-c3ccccc3)c2=O)c(=O)n(-c2ccccc2)n1C.O=[N+]([O-])c1cc([N+](=O)[O-])c(O)c([N+](=O)[O-])c1,inactive: -3.69%
15,O=[N+]([O-])c1ccc(OP2(=O)COCCO2)cc1 (stereo not drawn),inactive: 3.88%
16,Cc1cc(-c2cccc3ccccc23)c(C)cn1.O=[N+]([O-])c1cc([N+](=O)[O-])c(O)c([N+](=O)[O-])c1,inactive: 2.61%
17,O=[N+]([O-])c1cc([N+](=O)[O-])c(NCC2CCS(=O)(=O)C2)c([N+](=O)[O-])c1 (stereo not drawn),inactive: 6.9%
18,CN(C)CCOC(=O)C(O)(c1ccccc1)C1CCCCC1 (stereo not drawn),inactive: -25.5%
19,COc1ccc(NP(C)(=O)Oc2ccccc2OC)cc1 (stereo not drawn),inactive: -12%
20,COc1ccc(OP(C)(=O)Nc2cccc(Br)c2)cc1 (stereo not drawn),inactive: -3.51%
21,CN(C)C1(CNC(=O)c2ccc(Cl)c(S(N)(=O)=O)c2)CCCCC1,inactive: -0.69%

row,SMILES,activation
1,CP(=O)(Nc1ccccc1)Oc1ccc(F)cc1 (stereo not drawn),inactive: -0.02%
2,CCCCCOc1ccc(NP(C)(=O)Oc2ccc(Cl)cc2Cl)cc1 (stereo not drawn),inactive: 12.7%
3,O=[N+]([O-])c1cc([N+](=O)[O-])c(OC2CCCCC2O)c([N+](=O)[O-])c1 (stereo not drawn),inactive: 8.04%
4,Cc1c([N+](=O)[O-])cc([N+](=O)[O-])c(Br)c1[N+](=O)[O-],inactive: -1.08%
5,CCN(CC)CCCOC(=O)C(O)(c1ccccc1)C1CCCCC1 (stereo not drawn),inactive: -55.5%
6,CCOC(=O)c1ccc(NP(C)(=O)Oc2ccc(F)cc2)cc1 (stereo not drawn),inactive: -3.23%
7,COc1ccc(OP(C)(=O)Nc2ccc(SC(F)(F)F)cc2)cc1 (stereo not drawn),inactive: 0.84%
8,CCN(CC)CCCNc1ccccc1[N+](=O)[O-].O=[N+]([O-])c1cc([N+](=O)[O-])c(O)c([N+](=O)[O-])c1,inactive: -9.87%
9,COc1ccc2c(c1O)-c1c(O)c(OC)cc3c1[C@H](C2)[N+](C)(C)CC3.O=[N+]([O-])c1cc([N+](=O)[O-])c([O-])c([N+](=O)[O-])c1[O-],inactive: -3.5%
10,O=C(OC1CN2CCC1CC2)c1ccc([N+](=O)[O-])cc1 (stereo not drawn),inactive: 3.12%
11,O=C(OCCN1CCN(CCOCc2ccccc2)CC1)C(O)(c1ccccc1)c1ccccc1,inactive: -21.4%
12,CP(=O)(Nc1ccccc1F)Oc1ccccc1 (stereo not drawn),inactive: 0.62%
13,CC(C)c1ccc(OP(C)(=O)Nc2ccc(SC(F)(F)F)cc2)cc1 (stereo not drawn),inactive: -12.8%
14,O=[N+]([O-])c1cc([N+](=O)[O-])c(Nc2ccc(Cl)cc2)c([N+](=O)[O-])c1,inactive: -15.2%
15,COc1ccccc1OP(C)(=O)Nc1ccc(C)cc1C (stereo not drawn),inactive: 5.24%
16,CP(=O)(Nc1ccccn1)Oc1ccccc1 (stereo not drawn),inactive: 6.32%
17,CCc1ccc(OP(C)(=O)O)cc1,inactive: 4.34%
18,Cc1c(NP(C)(=O)Oc2ccc(C(C)C)cc2)c(=O)n(-c2ccccc2)n1C (stereo not drawn),inactive: -3.81%
19,O=[N+]([O-])c1cc([N+](=O)[O-])c(Nc2ccccn2)c([N+](=O)[O-])c1,inactive: -7.68%
20,COc1ccc(OP(C)(=O)Nc2ccccn2)cc1 (stereo not drawn),inactive: 6.38%
